## Measured affinities in a library of Ab-14 light chain variants

From the AlphaSeq antibody data of Li et al. 2023 (doi:10.1038/s41467-023-39022-2), copy in the FLAb collection.

Target: peptide PDVDLGDISGINAS, taken from heptad repeat 2 (HR2) of SARS-CoV-2 spike.

Parent: Ab-14, a human scFv built as VH, the linker GGGGSGGGGSGGGGS, VL. Only the CDRs of the light chain vary.
VH: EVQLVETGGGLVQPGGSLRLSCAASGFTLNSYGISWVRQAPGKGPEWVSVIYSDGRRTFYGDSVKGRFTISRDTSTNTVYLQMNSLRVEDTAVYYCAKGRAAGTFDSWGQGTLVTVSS
VL: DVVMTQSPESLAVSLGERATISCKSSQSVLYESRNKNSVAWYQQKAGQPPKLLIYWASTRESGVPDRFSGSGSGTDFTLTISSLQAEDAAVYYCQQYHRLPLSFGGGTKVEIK

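These sequences belong to a second round, designed from the earlier measurements on random variants of the parent. Several design methods are mixed in this list. The assay is AlphaSeq: two haploid yeast populations carry antibody and antigen on their surface. After mating in shaken culture at 30 °C for 16 h, diploids were selected and their barcode pairs sequenced. The ratio of observed to expected reads was calibrated, replicate by replicate, on BCL2-family standards whose Kd was known from biolayer interferometry. Each pool was mated in six replicate cultures.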

Each variant is given by its three light chain CDRs, as the data file delimits them; those of the parent are KSSQSVLYESRNKNSVA, WASTRES, QQYHRLPLS. The read-out is the apparent dissociation constant on a log10 scale (nM): the lower, the stronger. A mean of the replicates is given; it leaves out those without a signal. An entry "not detected" has no value in the source: the pair was not observed among the diploids in any replicate. This suggests poor binding but is not conclusive. As a blank, each scFv also met three strains without target: over all light chain designs, 4% of these pairings were detected, typically at 2.64 and seldom below 1.59. A sequence measured in both rounds can read differently, since the two assays cover different ranges. The authors' rule: three or more of the six replicates give a measured affinity, fewer mean a poor binder. Of ten entries with the parent sequence, four were seen in most replicates (averages 0.34 to 2.37), three in one and three in none, so single entries are noisy.

CDR-L1,CDR-L2,CDR-L3,mean log10 Kd (nM),detected
SLAESAHLETRDKNSVA,DNTTRES,QHYDRLPLS,2.69,2 of 6
KASQSGLYESRVKNSVA,SASMRES,QQYHRLPLS,0.83,6 of 6
KSSPSQLYEERMDNSVA,NASQRES,QQYHRLPLS,0.37,6 of 6
TISNSFMMENQFRNSVA,QASTRES,QCYDRLPLS,0.92,6 of 6
KLSTGTYGLTGHASNVA,HDEMRWE,QQYHKLPLI,not detected,0 of 6
RSSNSVLEESREKNSVA,SASTRES,QQYHRLPLS,0.21,6 of 6
KIGLVTNGISFSTNSVA,EQSTRNN,QQYDRLPLS,1.92,6 of 6
KLYSVTGTEKINGNNVA,EMETRER,QQYNRLPLS,0.74,6 of 6
KLSQSVLYESRVKNNVA,GASTRES,QQYHRLPLS,0.05,6 of 6
KLSLSWLYESRNKNSVA,NASTRES,QQYHRLPLS,-0.28,6 of 6
KLSQSVMYESRNKNSVA,NASTRYS,QQYHRLPLS,-0.21,6 of 6
KSSQSVAMESSNANSVA,DASTRES,QQYHRLPLS,0.12,6 of 6
KFEQLHLYESRNKNSVA,QGSTREM,QQYHRLPLS,0.03,6 of 6
KSSQSVLYESRNKNSVA,KASTRLS,QQYHRLPLS,1.80,6 of 6
KMKQSIEGNPLNTNSIA,DVDSVTE,QQYARLPLF,0.18,6 of 6
MMSSLMGYESRNIQNVA,QTSTREE,QQYDRLPLV,0.25,6 of 6
SLGLATMLEEYVRNSVA,NNSTREV,QQYDRLPLS,not detected,0 of 6
KLSMSYRQESENKNSIA,ELVTRMS,QQYHRLPLS,0.98,6 of 6
KSSQSVLYESGNFNSVA,WASTRES,QQYHRLPLS,2.37,6 of 6
KISMGWEMNSRQNHNMA,EADLKCS,QQYNRLPLF,0.61,6 of 6
KSSGSILYESRNKNSVA,WASTRES,QQYHRLPLS,2.35,3 of 6
KLSQQDEYESRNKNSVA,QASVREQ,QQYHRLPLS,-0.08,6 of 6
MFSQLTYTGSRARNAVA,QASTREN,QQYHHLPLS,0.89,6 of 6
KLSQSELYESRNKNSVA,EASQRLS,QQYHRLPLS,0.05,6 of 6
KLWGRCMDEELINNSIA,NGRLAVQ,QQYDRLPLS,1.57,6 of 6
TISGVMQTVSHSKNNVA,EMNTRLE,QQYVRLPLA,0.22,6 of 6
QIYQAMHTLMQAKNNVA,DVTNRQK,QQYNRLPLS,0.78,6 of 6
KVHAYTQGVEQDMQNVA,ETSYASR,QQYFRLPLS,2.59,5 of 6
KNSQSVLYESRNKNSVA,WASTRES,QQRHSLPPS,1.51,1 of 6
HMSMLTLMGMRQRNSVA,QMTMREN,QQYDRLPLA,1.58,6 of 6
KSSQSVLYESRNDNSVA,WASTRES,QQSHRLPLS,not detected,0 of 6
KVDQSQLYESRNKNSVA,QASTRES,QQYHRLPLS,-0.21,6 of 6
KSSQSVLTSDRNKNSVA,WASTRES,QQYFRLPLS,1.32,6 of 6
SLSHDQGDETNHWENVA,QDHYRAN,QDYSRLPLS,1.89,5 of 6
MLTMFANENAGWSNNIA,DTNNLNT,QQYQRLPFM,1.90,6 of 6
KLSQSEDYESRNKNSVA,EASTRES,QQYHRLPLS,0.38,6 of 6
TLTQSVGMESHAKNSVA,DLSTRGS,QQYHRLPLS,0.17,6 of 6
KSSQSVLYESGNKNSVA,WASTRES,QQYHRLPLF,0.68,1 of 6
KLLQSVNFGSRALNSVA,QMETRED,QQYHRLPLS,0.59,6 of 6
KLSQSVLYEDRNKNSVA,HASTRES,QQYHRLPLS,-0.32,6 of 6
KASQSEPYEDRNKNSVA,NASYRCS,QQYHRLPLH,1.54,6 of 6
KMSQSVLLESRNKHSVA,WASTRES,QQYHRLPLS,0.85,6 of 6
KSSQSVLYESRNENPIA,QASTREV,QQYHRLPLS,-0.10,6 of 6
QLEQDQWPMGKGWHSIA,NATTLVA,QQYYYLPLS,1.40,6 of 6
KLVESVLYESRNSNSVA,NASYREE,QQYHRLPLS,0.05,6 of 6
KSSQSVDMESENKNSVA,DASTRES,QQYHRLPLS,-0.08,6 of 6
KLSQSVLYESRQKNSVA,GASTRES,QQYHRLPLS,2.10,2 of 6
KFQQSVLYESRNKNSVA,GASTRES,QQYHRLPLS,-0.23,6 of 6
KSSQSGLYESRNKNSVA,DASTRES,QQYHRLPIS,0.15,6 of 6
KSSQSVLYESRLKNVVA,QAAQRES,QQYHRLPLS,not detected,0 of 6
KARQSNLYEDRNQNSVA,SASQRLS,QQYHRLPLS,0.11,6 of 6
KLQQSVLYESRQKNSVA,NASTRMS,QQYHRLPLS,0.26,6 of 6
KVSQSHLYESRNKNSVA,DASQRES,QQYHRLPLS,0.38,6 of 6
KLEQSTLYESRNQNSVA,WASTREE,QQYHRLPLS,0.67,6 of 6
HLEQSVLYESRNKNSVA,NASTRES,QQYHRLPLS,-0.35,6 of 6

A selection of 5 entries from above:

CDR-L1	CDR-L2	CDR-L3	mean log10 Kd (nM)	detected
KSSGSILYESRNKNSVA	WASTRES	QQYHRLPLS	2.35	3 of 6
QIYQAMHTLMQAKNNVA	DVTNRQK	QQYNRLPLS	0.78	6 of 6
KLSQSVLYESRQKNSVA	GASTRES	QQYHRLPLS	2.10	2 of 6
KVHAYTQGVEQDMQNVA	ETSYASR	QQYFRLPLS	2.59	5 of 6
KSSQSVLYESRNKNSVA	KASTRLS	QQYHRLPLS	1.80	6 of 6